For one test, the target named is EZH2/SUZ/EED (Homo sapiens, UniProt Q15910). In words: Inhibitory effect on EZH2 by the MTase-Glo method (Test Example 1). Type of test: biochemical. The settings on record: read-out: Test Example 1 WT EZH2 IC50, EZH2/SUZ/EED 6.25 nM, H3 peptide 10 μM, SAM 3 μM, 30° C. 3 h.
The next test relates to Karpas-422 cells. In words: Anti-proliferation by Cell Titer-Glo method (Test Example 3). Type of test: cell-based, human. The settings on record: read-out: Test Example 3 Karpas-422 cell anti-proliferation IC50, Cell-Titer Glo on the eleventh day.
The test system of test [1] is H3K27Me3 methylation in Karpas-422 cells. In words: H3K27Me3 cell method, inhibition of H3K27Me3 methylation (Test Example 2). Type of test: cell-based, human. The following applies: read-out: Test Example 2 H3K27Me3 inhibition (Karpas-422) IC50, 3 days incubation, HTRF signal.
Another test concerns the target EZH1/SUZ/EED (Homo sapiens, UniProt Q92800). In words: Inhibitory effect on EZH1 by the MTase-Glo method (Test Example 1). Type of test: biochemical. The following applies: read-out: Test Example 1 WT EZH1 IC50, EZH1/SUZ/EED 25 nM, H3 peptide 10 μM, SAM 3 μM, 30° C. 3 h.

Chains of the proteins cited; added tags and fusions are not shown. Residues count along the entry.
UniProt Q15910, 2-746 limits assumed: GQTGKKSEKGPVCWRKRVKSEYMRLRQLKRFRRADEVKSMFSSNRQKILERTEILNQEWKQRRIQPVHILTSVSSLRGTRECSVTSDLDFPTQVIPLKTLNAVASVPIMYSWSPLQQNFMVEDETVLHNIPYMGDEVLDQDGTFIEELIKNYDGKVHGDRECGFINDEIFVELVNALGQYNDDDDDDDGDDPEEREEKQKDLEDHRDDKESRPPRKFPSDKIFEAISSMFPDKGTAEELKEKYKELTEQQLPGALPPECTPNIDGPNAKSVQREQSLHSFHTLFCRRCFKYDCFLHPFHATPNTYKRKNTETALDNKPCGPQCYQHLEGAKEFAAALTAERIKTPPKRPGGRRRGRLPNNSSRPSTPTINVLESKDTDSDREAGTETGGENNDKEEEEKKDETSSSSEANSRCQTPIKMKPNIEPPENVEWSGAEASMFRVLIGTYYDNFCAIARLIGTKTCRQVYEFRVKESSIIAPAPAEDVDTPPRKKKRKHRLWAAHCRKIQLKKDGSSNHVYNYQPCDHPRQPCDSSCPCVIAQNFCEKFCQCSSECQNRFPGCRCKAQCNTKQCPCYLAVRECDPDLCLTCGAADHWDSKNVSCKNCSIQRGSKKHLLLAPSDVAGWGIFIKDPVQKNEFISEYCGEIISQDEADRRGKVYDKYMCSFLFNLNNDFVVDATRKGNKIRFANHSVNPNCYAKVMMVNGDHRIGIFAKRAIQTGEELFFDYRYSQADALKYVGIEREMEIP
UniProt Q92800, 2-747 limits assumed: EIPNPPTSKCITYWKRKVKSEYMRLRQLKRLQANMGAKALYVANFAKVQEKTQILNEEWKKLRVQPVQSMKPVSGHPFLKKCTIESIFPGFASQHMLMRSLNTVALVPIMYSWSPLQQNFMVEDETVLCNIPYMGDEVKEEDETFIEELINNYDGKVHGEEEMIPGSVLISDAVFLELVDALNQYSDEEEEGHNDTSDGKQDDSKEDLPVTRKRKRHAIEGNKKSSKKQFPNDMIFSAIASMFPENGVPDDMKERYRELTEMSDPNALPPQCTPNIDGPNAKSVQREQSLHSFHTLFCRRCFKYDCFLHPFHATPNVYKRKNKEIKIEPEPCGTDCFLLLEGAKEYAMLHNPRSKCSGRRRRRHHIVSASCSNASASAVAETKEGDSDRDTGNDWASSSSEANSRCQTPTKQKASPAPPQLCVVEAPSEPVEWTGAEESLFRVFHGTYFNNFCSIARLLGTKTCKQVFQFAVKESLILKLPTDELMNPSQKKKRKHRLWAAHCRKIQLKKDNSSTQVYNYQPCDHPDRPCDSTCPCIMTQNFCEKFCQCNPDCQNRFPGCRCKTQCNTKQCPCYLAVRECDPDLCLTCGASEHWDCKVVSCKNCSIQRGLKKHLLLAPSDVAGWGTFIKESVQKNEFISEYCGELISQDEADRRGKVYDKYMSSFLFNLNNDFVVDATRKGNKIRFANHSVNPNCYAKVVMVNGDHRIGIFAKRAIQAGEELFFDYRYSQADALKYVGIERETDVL
UniProt O75530, 2-441 partner limits assumed: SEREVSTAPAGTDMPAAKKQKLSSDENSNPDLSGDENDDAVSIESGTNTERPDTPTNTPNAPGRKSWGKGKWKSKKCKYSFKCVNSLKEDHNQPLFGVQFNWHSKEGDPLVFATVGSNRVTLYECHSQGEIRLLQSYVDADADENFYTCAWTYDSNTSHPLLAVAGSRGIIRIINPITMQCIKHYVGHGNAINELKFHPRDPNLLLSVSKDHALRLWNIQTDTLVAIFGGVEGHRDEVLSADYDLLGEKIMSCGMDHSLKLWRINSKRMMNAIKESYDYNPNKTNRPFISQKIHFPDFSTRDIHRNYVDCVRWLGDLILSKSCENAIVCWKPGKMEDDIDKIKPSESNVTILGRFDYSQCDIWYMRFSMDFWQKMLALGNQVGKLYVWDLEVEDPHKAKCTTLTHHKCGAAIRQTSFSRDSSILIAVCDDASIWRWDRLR
UniProt Q15022, 2-739 partner limits assumed: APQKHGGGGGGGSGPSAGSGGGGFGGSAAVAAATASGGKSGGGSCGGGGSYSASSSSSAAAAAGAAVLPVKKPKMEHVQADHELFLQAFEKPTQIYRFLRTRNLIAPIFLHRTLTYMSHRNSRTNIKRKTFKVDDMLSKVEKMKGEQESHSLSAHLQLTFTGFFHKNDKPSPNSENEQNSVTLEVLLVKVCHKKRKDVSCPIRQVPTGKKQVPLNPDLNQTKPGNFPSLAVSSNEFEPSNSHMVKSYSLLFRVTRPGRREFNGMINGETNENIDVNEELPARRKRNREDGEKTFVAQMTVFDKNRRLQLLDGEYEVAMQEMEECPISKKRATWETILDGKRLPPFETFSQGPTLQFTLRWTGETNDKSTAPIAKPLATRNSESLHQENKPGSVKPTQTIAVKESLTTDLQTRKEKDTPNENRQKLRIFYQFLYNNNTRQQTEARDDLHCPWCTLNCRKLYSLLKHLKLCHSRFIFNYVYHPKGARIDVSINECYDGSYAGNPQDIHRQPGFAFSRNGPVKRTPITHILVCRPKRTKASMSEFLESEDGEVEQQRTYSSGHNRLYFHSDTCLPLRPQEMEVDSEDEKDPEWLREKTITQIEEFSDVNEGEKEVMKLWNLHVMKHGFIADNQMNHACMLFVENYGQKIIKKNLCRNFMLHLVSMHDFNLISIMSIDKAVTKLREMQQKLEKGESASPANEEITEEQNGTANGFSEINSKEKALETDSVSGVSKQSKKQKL

For `COc1cc(C)[nH]c(=O)c1CNC(=O)c1cc(Cl)c2c(c1C)O[C@@H]([C@H]1CC[C@@H](N(C)CCOCCF)CC1)CO2`, the results for the IC50 (at EZH2/SUZ/EED; with Karpas-422 cells; in test [1]) were 6.2 nM, 26.1 nM and 39.4 nM, respectively.
In the case of `CSc1cc(C)[nH]c(=O)c1CNC(=O)c1cc(Cl)c2c(c1C)O[C@@H](C1CCN(CC3CC3)CC1)CO2`, the IC50 on EZH2/SUZ/EED came out at 3.3 nM; on EZH1/SUZ/EED, 17.9 nM; in test [1], 23.3 nM.

These data come from patent publication US20260184697A1, “EZH1/2 INHIBITOR, PREPARATION THEREOF, AND USE THEREOF IN ANTI-TUMOR THERAPY” (JIANGSU TASLY DIYI PHARMACEUTICAL CO., LTD., priority 2022, published 2026).
